The chains behind the UniProt entries cited, without tags or fusion partners.
UniProt P23219, whole entry: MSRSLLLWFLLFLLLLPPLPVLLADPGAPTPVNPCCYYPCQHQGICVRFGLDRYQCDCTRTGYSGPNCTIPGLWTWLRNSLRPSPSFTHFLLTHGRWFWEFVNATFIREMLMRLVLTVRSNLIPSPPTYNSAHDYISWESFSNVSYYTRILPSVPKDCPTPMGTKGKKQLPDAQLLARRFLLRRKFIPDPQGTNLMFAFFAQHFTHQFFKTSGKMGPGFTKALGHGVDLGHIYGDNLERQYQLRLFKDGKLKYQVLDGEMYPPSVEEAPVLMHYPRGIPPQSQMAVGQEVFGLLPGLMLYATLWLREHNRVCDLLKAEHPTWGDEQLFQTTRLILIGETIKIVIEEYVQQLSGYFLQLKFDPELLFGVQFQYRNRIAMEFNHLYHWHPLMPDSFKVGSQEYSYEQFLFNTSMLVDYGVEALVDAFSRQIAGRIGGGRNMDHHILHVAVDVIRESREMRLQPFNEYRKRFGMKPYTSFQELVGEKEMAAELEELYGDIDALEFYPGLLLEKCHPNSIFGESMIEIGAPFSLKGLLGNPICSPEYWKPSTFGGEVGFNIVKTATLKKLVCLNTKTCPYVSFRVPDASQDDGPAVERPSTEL

According to ChEMBL document CHEMBL1132626 (J Med Chem, 1999):

Biological target: Prostaglandin G/H synthase 1 (Homo sapiens, UniProt P23219)

CS(=O)(=O)c1ccc(C2=C(Oc3ccccc3)C(=O)CC2)cc1
IC50: 11 µM
